Membrane permeability of cyclic peptides

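Conditions beyond the assay type are not listed; see the original paper. Other peptides of the study may be missing here. Peptides that the database sets to -10, its floor, are left out.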

PAMPA is the parallel artificial membrane permeability assay, which has no cells and reads passive diffusion. Permeability is in 10^-6 cm/s, converted from the database's log10 values; higher is more permeable.

The entry for CC(C)C[C@@H]1C(=O)N(C)[C@H](CC(C)C)C(=O)N2CCC[C@H]2C(=O)N(C)[C@@H](CC(C)C)C(=O)N[C@@H](Cc2ccccc2)C(=O)N2CCC[C@@H]2C(=O)N[C@@H](Cc2ccccc2)CC(=O)N1C lists PAMPA 5.9 × 10^-6 cm/s.
The entry for CC(C)C[C@@H]1NC(=O)[C@@H](CC(C)C)NC(=O)[C@H](C)N(C)C(=O)[C@H](Cc2ccccc2)NC(=O)[C@@H](CC(C)C)N(C)C(=O)[C@@H]2CCCN2C1=O lists PAMPA 7.4 × 10^-6 cm/s.
The entry for CC(C)C[C@@H]1NC(=O)CN(Cc2ccccc2)C(=O)C[C@H](Cc2ccccc2)NC(=O)[C@@H]2CCCN2C(=O)[C@H](Cc2ccccc2)NC(=O)[C@H](CC(C)C)N(C)C(=O)[C@@H]2CCCN2C1=O lists PAMPA 1.2 × 10^-6 cm/s.
The entry for CC(C)C[C@@H]1NC(=O)[C@@H]2CCCN2C(=O)CN(Cc2ccccc2)C(=O)[C@@H](CC(C)C)NC(=O)[C@@H](C)N(C)C(=O)[C@H]2CCCN2C(=O)[C@H](Cc2ccccc2)NC1=O lists PAMPA 0.2 × 10^-6 cm/s.
The entry for CC(C)C[C@H]1NC(=O)[C@H]2CCCN2C(=O)CN(Cc2ccccc2)C(=O)[C@@H](CC(C)C)NC(=O)C[C@H](Cc2ccccc2)NC(=O)[C@H](Cc2ccccc2)NC1=O lists PAMPA 5 × 10^-6 cm/s.
The entry for CC(C)C[C@@H]1C(=O)N(C)[C@H](CC(C)C)C(=O)N2CCC[C@@H]2C(=O)N(C)[C@H](CC(C)C)C(=O)N[C@@H](Cc2ccccc2)C(=O)N2CCC[C@H]2C(=O)N[C@@H](Cc2ccccc2)CC(=O)N1C lists PAMPA 5.5 × 10^-6 cm/s.
The entry for CC(C)C[C@@H]1NC(=O)C[C@H](Cc2ccccc2)NC(=O)[C@H]2CCCN2C(=O)[C@H](Cc2ccccc2)NC(=O)CN(Cc2ccccc2)C(=O)[C@H]2CCCN2C(=O)[C@@H](CC(C)C)NC1=O lists PAMPA 0.31 × 10^-6 cm/s.
The entry for CC(C)C[C@@H]1C(=O)N2CCC[C@@H]2C(=O)N(C)[C@@H](CC(C)C)C(=O)N[C@@H](Cc2ccccc2)C(=O)N2CCC[C@@H]2C(=O)N[C@H](C)C(=O)N[C@H](CC(C)C)C(=O)N1C lists PAMPA 0.78 × 10^-6 cm/s.
The entry for CC(C)C[C@@H]1C(=O)N2CCC[C@H]2C(=O)N[C@H](CC(C)C)C(=O)N[C@@H](Cc2ccccc2)C(=O)N[C@H](C)C(=O)N(C)[C@H](CC(C)C)C(=O)N1C lists PAMPA 6.6 × 10^-6 cm/s.
The entry for CC(C)C[C@@H]1NC(=O)[C@@H](CC(C)C)NC(=O)C[C@H](Cc2ccccc2)NC(=O)[C@H]2CCCN2C(=O)[C@H](Cc2ccccc2)NC(=O)[C@@H](CC(C)C)N(C)C(=O)[C@@H]2CCCN2C1=O lists PAMPA 4.9 × 10^-6 cm/s.
The entry for CC(C)C[C@@H]1NC(=O)[C@@H](CC(C)C)N(C)C(=O)C[C@H](Cc2ccccc2)NC(=O)[C@H]2CCCN2C(=O)[C@H](Cc2ccccc2)NC(=O)[C@@H](CC(C)C)N(C)C(=O)[C@H]2CCCN2C1=O lists PAMPA 3 × 10^-6 cm/s.
The entry for CCCN1CC(=O)N[C@H](CC(C)C)C(=O)N(Cc2ccccc2)CC(=O)N2CCC[C@H]2C(=O)N[C@H](CC(C)C)C(=O)N[C@@H](Cc2ccccc2)C(=O)N2CCC[C@@H]2C1=O lists PAMPA 1.1 × 10^-6 cm/s.
The entry for CCCN1CC(=O)N(C)[C@@H](CC(C)C)C(=O)N[C@@H](CC(C)C)C(=O)N2CCC[C@@H]2C(=O)N(C)[C@H](CC(C)C)C(=O)N[C@@H](Cc2ccccc2)C1=O lists PAMPA 10 × 10^-6 cm/s.
The entry for CC(C)C[C@@H]1NC(=O)[C@H]2CCCN2C(=O)[C@@H](CC(C)C)NC(=O)[C@@H](CC(C)C)N(C)C(=O)[C@H](C)NC(=O)[C@H](Cc2ccccc2)NC1=O lists PAMPA 0.45 × 10^-6 cm/s.
The entry for CCCN1CC(=O)N(C)[C@H](CC(C)C)C(=O)N(Cc2ccccc2)CC(=O)N2CCC[C@@H]2C(=O)N[C@H](CC(C)C)C(=O)N[C@@H](Cc2ccccc2)C(=O)N2CCC[C@@H]2C1=O lists PAMPA 3.7 × 10^-6 cm/s.
The entry for CC(C)C[C@@H]1C(=O)N2CCC[C@H]2C(=O)N(C)[C@@H](CC(C)C)C(=O)N[C@@H](Cc2ccccc2)C(=O)N2CCC[C@H]2C(=O)N[C@@H](Cc2ccccc2)CC(=O)N[C@H](CC(C)C)C(=O)N1C lists PAMPA 2.8 × 10^-6 cm/s.
The entry for CC(C)C[C@@H]1NC(=O)[C@@H](C)N(C)C(=O)[C@@H]2CCCN2C(=O)[C@H](Cc2ccccc2)NC(=O)CN(Cc2ccccc2)C(=O)[C@@H]2CCCN2C(=O)[C@@H](CC(C)C)N(C)C1=O lists PAMPA 1.3 × 10^-6 cm/s.
The entry for CC(C)C[C@@H]1C(=O)N[C@@H](Cc2ccccc2)C(=O)N2CCC[C@H]2C(=O)N[C@H](C)C(=O)N(C)[C@@H](CC(C)C)C(=O)N(C)[C@@H](CC(C)C)C(=O)N2CCC[C@@H]2C(=O)N1C lists PAMPA 2.8 × 10^-6 cm/s.
The entry for CC(C)C[C@@H]1NC(=O)[C@@H](C)N(C)C(=O)[C@H](Cc2ccccc2)NC(=O)[C@@H](CC(C)C)N(C)C(=O)[C@H]2CCCN2C(=O)[C@H](CC(C)C)NC1=O lists PAMPA 3.5 × 10^-6 cm/s.
The entry for CC(C)C[C@H]1NC(=O)[C@@H](C)N(C)C(=O)[C@@H]2CCCN2C(=O)[C@H](Cc2ccccc2)NC(=O)CN(Cc2ccccc2)C(=O)[C@@H]2CCCN2C(=O)CN(Cc2ccccc2)C1=O lists PAMPA 0.13 × 10^-6 cm/s.
The entry for CC(C)C[C@@H]1NC(=O)[C@H]2CCCN2C(=O)C[C@H](Cc2ccccc2)NC(=O)[C@@H](CC(C)C)N(C)C(=O)[C@H](C)NC(=O)[C@@H]2CCCN2C(=O)[C@H](Cc2ccccc2)NC1=O lists PAMPA 0.83 × 10^-6 cm/s.
The entry for CC(C)C[C@@H]1NC(=O)[C@H](C)NC(=O)[C@H](Cc2ccccc2)NC(=O)CN(Cc2ccccc2)C(=O)[C@@H]2CCCN2C(=O)CN(Cc2ccccc2)C1=O lists PAMPA 1.1 × 10^-6 cm/s.
The entry for CC(C)C[C@@H]1NC(=O)[C@@H](CC(C)C)N(C)C(=O)C[C@H](Cc2ccccc2)NC(=O)[C@@H]2CCCN2C(=O)[C@H](Cc2ccccc2)NC(=O)[C@@H](CC(C)C)N(C)C(=O)[C@@H]2CCCN2C1=O lists PAMPA 5 × 10^-6 cm/s.

2 of these entries, quoted again:

For CC(C)C[C@@H]1NC(=O)[C@@H](C)N(C)C(=O)[C@H](Cc2ccccc2)NC(=O)[C@@H](CC(C)C)N(C)C(=O)[C@H]2CCCN2C(=O)[C@H](CC(C)C)NC1=O the data give PAMPA 3.5 × 10^-6 cm/s.
For CC(C)C[C@@H]1NC(=O)[C@@H](CC(C)C)NC(=O)[C@H](C)N(C)C(=O)[C@H](Cc2ccccc2)NC(=O)[C@@H](CC(C)C)N(C)C(=O)[C@@H]2CCCN2C1=O the data give PAMPA 7.4 × 10^-6 cm/s.

Data: CycPeptMPDB; original report Townsend et al. 2020, doi:10.26434/chemrxiv.13335941.v1.